Reference: patent US20090253669A1, “Substituted Sulfonamide Compounds” (GRUENENTHAL GmbH, priority 2008, published 2009)

The chains behind the UniProt entries cited, without tags or fusion partners.
UniProt P35372, whole entry, looked up: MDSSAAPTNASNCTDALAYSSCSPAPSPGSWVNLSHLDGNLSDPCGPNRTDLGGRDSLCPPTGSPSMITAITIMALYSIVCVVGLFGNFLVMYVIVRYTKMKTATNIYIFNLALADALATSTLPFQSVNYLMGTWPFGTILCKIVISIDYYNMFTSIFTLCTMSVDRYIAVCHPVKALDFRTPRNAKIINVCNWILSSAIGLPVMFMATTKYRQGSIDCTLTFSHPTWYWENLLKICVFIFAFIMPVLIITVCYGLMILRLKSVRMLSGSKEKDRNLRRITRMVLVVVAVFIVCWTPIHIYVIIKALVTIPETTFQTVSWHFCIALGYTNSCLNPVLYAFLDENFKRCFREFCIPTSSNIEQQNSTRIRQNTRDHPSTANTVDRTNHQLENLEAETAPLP

Target: human μ opiate receptor (Homo sapiens, UniProt P35372)
Experiment: [3H]-naloxone displacement, SPA, membranes of CHO-K1 cells
Details: 1 μM test substance; inhibition of specific binding of 1 nmol/l [3H]-naloxone

Compound | μ opioid receptor [1 μM] % inhibition
CN(CC1CCC(c2ccccc2)(N2CCCC2)CC1)C(=O)CC(NS(=O)(=O)c1ccc2ccccc2c1)c1ccccc1 (stereo not shown) [Compound 92, N-methyl-3-(naphthalene-2-sulfonamido)-3-phenyl-N-((4-phenyl-4-(pyrrolidin-1-yl)cyclohexyl)methyl)propanamide] | 83%
COc1cc(C)c(S(=O)(=O)N(C)CCOCC(=O)NCC2CCC(Cc3ccccc3)(N3CCOCC3)CC2)c(C)c1 (stereo not shown) [Compound 188, N-((4-benzyl-4-morpholinocyclohexyl)methyl)-2-(2-(4-methoxy-N,2,6-trimethylphenylsulfonamido)ethoxy)acetamide] | 13%
CN1CCN(C2(c3ccc(F)cc3)CCN(C(=O)COCC3CCc4ccccc4N3S(=O)(=O)c3ccc(Cl)c(Cl)c3)CC2)CC1 (stereo not shown) [Compound 126, 2-((1-(3,4-dichlorophenylsulfonyl)-1,2,3,4-tetrahydroquinolin-2-yl)methoxy)-1-(4-(4-fluorophenyl)-4-(4-methylpiperazin-1-yl)piperidin-1-yl)ethanone] | 0%
CN(CCC1CCC(c2ccccc2)(N(C)C)CC1)C(=O)COCC1CCc2ccccc2N1S(=O)(=O)c1ccc(Cl)c(Cl)c1 (stereo not shown) [Compound 111, 2-((1-(3,4-dichlorophenylsulfonyl)-1,2,3,4-tetrahydroquinolin-2-yl)methoxy)-N-(2-(4-(dimethylamino)-4-phenylcyclohexyl)ethyl)-N-methylacetamide] | 100%
Cc1cc(S(=O)(=O)N2CCCCC2CCC(=O)N(C)CC2CCC(c3ccccc3)(N3CCCC3)CC2)c(C)cc1Cl (stereo not shown) [Compound 140, 3-(1-(4-chloro-2,5-dimethylphenylsulfonyl)piperidin-2-yl)-N-methyl-N-((4-phenyl-4-(pyrrolidin-1-yl)cyclohexyl)methyl)propanamide] | 28%
Cc1cc(S(=O)(=O)N2CCCCC2CCC(=O)N2CCC(CCc3ccccc3)(N3CCN(C)CC3)CC2)c(C)cc1Cl (stereo not shown) [Compound 122, 3-(1-(4-chloro-2,5-dimethylphenylsulfonyl)piperidin-2-yl)-1-(4-(4-methylpiperazin-1-yl)-4-phenethylpiperidin-1-yl)propan-1-one] | 2%
COc1cc(C)c(S(=O)(=O)N2CCCCC2COCC(=O)N(C)CCCC2CCC(c3ccccc3)(N(C)C)CC2)c(C)c1 (stereo not shown) [Compound 203, N-(3-(4-(dimethylamino)-4-phenylcyclohexyl)propyl)-2-((1-(4-methoxy-2,6-dimethylphenylsulfonyl)piperidin-2-yl)methoxy)-N-methylacetamide] | 80%
CN(CCOCC(=O)NC1CCC(c2ccccc2)(N2CCCC2)CC1)S(=O)(=O)c1ccc(Cl)cc1Cl (stereo not shown) [Compound 179, 2-(2-(2,4-dichloro-N-methylphenylsulfonamido)ethoxy)-N-(4-phenyl-4-(pyrrolidin-1-yl)cyclohexyl)acetamide] | 94%
COc1cc(C)c(S(=O)(=O)N(C)CCOCC(=O)NC2CCC(c3ccccc3)(N3CCCCC3)CC2)c(C)c1C (stereo not shown) [Compound 28, 2-(2-(4-methoxy-N,2,3,6-tetramethylphenylsulfonamido)ethoxy)-N-(4-phenyl-4-(piperidin-1-yl)cyclohexyl)acetamide] | 39%
COc1cc(C)c(S(=O)(=O)N2CCCC[C@H]2COCC(=O)N(C)CCC2CCC(c3ccccc3)(N3CCCC3)CC2)c(C)c1 (stereo partly drawn) [Compound 200, (S)-2-((1-(4-methoxy-2,6-dimethylphenylsulfonyl)piperidin-2-yl)methoxy)-N-methyl-N-(2-(4-phenyl-4-(pyrrolidin-1-yl)cyclohexyl)ethyl)acetamide] | 75%
COc1cc(C)c(S(=O)(=O)N2CCCC(COCC(=O)NC3CCC(Cc4ccccc4)(N4CCCC4)CC3)C2)c(C)c1 (stereo not shown) [Compound 180, N-(4-benzyl-4-(pyrrolidin-1-yl)cyclohexyl)-2-((1-(4-methoxy-2,6-dimethylphenylsulfonyl)piperidin-3-yl)methoxy)acetamide] | 48%
Cc1cc(S(=O)(=O)N2CCCCC2CCC(=O)N(C)CCCC2CCC(Cc3ccccc3)(N3CCCC3)CC2)c(C)cc1Cl (stereo not shown) [Compound 124, N-(3-(4-benzyl-4-(pyrrolidin-1-yl)cyclohexyl)propyl)-3-(1-(4-chloro-2,5-dimethylphenylsulfonyl)piperidin-2-yl)-N-methylpropanamide] | 17%
COc1cc(C)c(S(=O)(=O)N(C)CCOCC(=O)N2CCC(c3ccncc3)(N(C)C)CC2)c(C)c1 [Compound 206, N-(2-(2-(4-(dimethylamino)-4-(pyridin-4-yl)piperidin-1-yl)-2-oxoethoxy)ethyl)-4-methoxy-N,2,6-trimethylbenzenesulfonamide] | 4%
Cc1cc(S(=O)(=O)N2CCCCC2CCC(=O)N(C)CC2CCC(CCc3ccccc3)(N3CCCC3)CC2)c(C)cc1Cl (stereo not shown) [Compound 141, 3-(1-(4-chloro-2,5-dimethylphenylsulfonyl)piperidin-2-yl)-N-methyl-N-((4-phenethyl-4-(pyrrolidin-1-yl)cyclohexyl)methyl)propanamide] | 23%
COc1cc(C)c(S(=O)(=O)N(C)CCOCC(=O)N2CCC(CCc3ccccc3)(N(C)C)CC2)c(C)c1 [Compound 48, N-(2-(2-(4-(dimethylamino)-4-phenethylpiperidin-1-yl)-2-oxoethoxy)ethyl)-4-methoxy-N,2,6-trimethylbenzenesulfonamide] | 8%
CN(C)C1(c2ccccc2)CCC(NC(=O)COC2CCN(S(=O)(=O)c3c(Cl)cc(Cl)cc3Cl)C2)CC1 (stereo not shown) [Compound 198, N-(4-(dimethylamino)-4-phenylcyclohexyl)-2-(1-(2,4,6-trichlorophenylsulfonyl)pyrrolidin-3-yloxy)acetamide] | 100%
CN(CCOCC(=O)NC1CCC(Cc2ccccc2)(N2CCCC2)CC1)S(=O)(=O)c1ccc(Cl)cc1Cl (stereo not shown) [Compound 193, N-(4-benzyl-4-(pyrrolidin-1-yl)cyclohexyl)-2-(2-(2,4-dichloro-N-methylphenylsulfonamido)ethoxy)acetamide] | 56%
COc1cc(C)c(S(=O)(=O)N2CCCC2COCC(=O)N(C)CC2CCC(Cc3ccccc3)(N3CCN(C)CC3)CC2)c(C)c1 (stereo not shown) [Compound 154, N-((4-benzyl-4-(4-methylpiperazin-1-yl)cyclohexyl)methyl)-2-((1-(4-methoxy-2,6-dimethylphenylsulfonyl)pyrrolidin-2-yl)methoxy)-N-methylacetamide] | 13%
COc1cc(C)c(S(=O)(=O)N2CCCCC2COCC(=O)N(C)CCC2CCC(c3ccccc3)(N(C)C)CC2)c(C)c1 (stereo not shown) [Compound 81, N-(2-(4-(dimethylamino)-4-phenylcyclohexyl)ethyl)-2-((1-(4-methoxy-2,6-dimethylphenylsulfonyl)piperidin-2-yl)methoxy)-N-methylacetamide] | 96%
CN1CCN(C2(c3ccc(F)cc3)CCN(C(=O)CC(NS(=O)(=O)c3ccc4ccccc4c3)c3ccccc3)CC2)CC1 (stereo not shown) [Compound 96, N-(3-(4-(4-fluorophenyl)-4-(4-methylpiperazin-1-yl)piperidin-1-yl)-3-oxo-1-phenylpropyl)naphthalene-2-sulfonamide] | 46%
CN(CCCC1CCC(Cc2ccccc2)(N2CCCC2)CC1)C(=O)CC1CCCCN1S(=O)(=O)c1cccc(C(F)(F)F)c1 (stereo not shown) [Compound 93, N-(3-(4-benzyl-4-(pyrrolidin-1-yl)cyclohexyl)propyl)-N-methyl-2-(1-(3-(trifluoromethyl)phenylsulfonyl)piperidin-2-yl)acetamide] | 11%
COc1cc(C)c(S(=O)(=O)N2CCCC(OCC(=O)NC3CCC(Cc4ccccc4)(N4CCCC4)CC3)C2)c(C)c1 (stereo not shown) [Compound 181, N-(4-benzyl-4-(pyrrolidin-1-yl)cyclohexyl)-2-(1-(4-methoxy-2,6-dimethylphenylsulfonyl)piperidin-3-yloxy)acetamide] | 46%
COc1cc(C)c(S(=O)(=O)N2CCCC2COCC(=O)NC2CCC(Cc3ccccc3)(N3CCCC3)CC2)c(C)c1 (stereo not shown) [Compound 151, N-(4-benzyl-4-(pyrrolidin-1-yl)cyclohexyl)-2-((1-(4-methoxy-2,6-dimethylphenylsulfonyl)pyrrolidin-2-yl)methoxy)acetamide] | 66%
COc1cc(C)c(S(=O)(=O)N(C)CCOCC(=O)N(C)CC2CCC(Cc3ccccc3)(N3CCCC3)CC2)c(C)c1 (stereo not shown) [Compound 45, N-((4-benzyl-4-(pyrrolidin-1-yl)cyclohexyl)methyl)-2-(2-(4-methoxy-N,2,6-trimethylphenylsulfonamido)ethoxy)-N-methylacetamide] | 15%
COc1cc(C)c(S(=O)(=O)N(C)CCOCC(=O)N2CCC(CCc3ccccc3)(N3CCN(C)CC3)CC2)c(C)c1 [Compound 87, 4-methoxy-N,2,6-trimethyl-N-(2-(2-(4-(4-methylpiperazin-1-yl)-4-phenethylpiperidin-1-yl)-2-oxoethoxy)ethyl)benzenesulfonamide] | 27%
COc1cc(C)c(S(=O)(=O)N2CCCCC2COCC(=O)NCC2CCC(c3ccccc3)(N3CCOCC3)CC2)c(C)c1 (stereo not shown) [Compound 157, 2-((1-(4-methoxy-2,6-dimethylphenylsulfonyl)piperidin-2-yl)methoxy)-N-((4-morpholino-4-phenylcyclohexyl)methyl)acetamide] | 36%
CN(CCCC1CCC(c2ccccc2)(N2CCCC2)CC1)C(=O)CC1CCCCN1S(=O)(=O)c1cccc(C(F)(F)F)c1 (stereo not shown) [Compound 37, N-methyl-N-(3-(4-phenyl-4-(pyrrolidin-1-yl)cyclohexyl)propyl)-2-(1-(3-(trifluoromethyl)phenylsulfonyl)piperidin-2-yl)acetamide] | 62%
CN(CCC1CCC(CCc2ccccc2)(N(C)C)CC1)C(=O)CC1CCCCN1S(=O)(=O)c1cccc(C(F)(F)F)c1 (stereo not shown) [Compound 76, N-(2-(4-(dimethylamino)-4-phenethylcyclohexyl)ethyl)-N-methyl-2-(1-(3-(trifluoromethyl)phenylsulfonyl)piperidin-2-yl)acetamide] | 43%
